Data as given in ChEMBL document CHEMBL5725956, “Piperazine derivatives as liver X receptor modulators” (2018).

Protein sequences, listed by entry. Tags and fused reporters are not part of them.
UniProt P55055, whole entry, looked up: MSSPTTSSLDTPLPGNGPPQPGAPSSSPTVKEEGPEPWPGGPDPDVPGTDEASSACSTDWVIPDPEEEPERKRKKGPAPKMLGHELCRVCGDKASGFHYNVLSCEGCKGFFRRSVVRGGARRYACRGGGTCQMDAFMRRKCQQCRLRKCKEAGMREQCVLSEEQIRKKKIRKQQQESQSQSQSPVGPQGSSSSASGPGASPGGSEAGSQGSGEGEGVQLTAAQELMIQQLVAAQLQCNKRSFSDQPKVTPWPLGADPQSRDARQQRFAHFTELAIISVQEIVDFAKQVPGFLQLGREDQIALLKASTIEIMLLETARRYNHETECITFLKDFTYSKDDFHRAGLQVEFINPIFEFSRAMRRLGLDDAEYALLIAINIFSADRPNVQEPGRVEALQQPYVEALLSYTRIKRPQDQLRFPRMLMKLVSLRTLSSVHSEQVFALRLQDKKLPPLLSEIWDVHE

Target: Oxysterols receptor LXR-beta (Homo sapiens, UniProt P55055)

Structure (SMILES)	Ki
CC(C)[C@@H]1CN(c2ccc(F)c(S(C)(=O)=O)c2)CCN1C(=O)OC(C)C(F)(F)F (stereo partly drawn)	0.038 µM
CC(C)[C@@H]1CN(c2ccc(F)c(S(C)(=O)=O)c2)CCN1C(=O)OC1CC(F)(F)C1(F)F (stereo partly drawn)	0.054 µM
CC(C)[C@@H]1CN(c2ccc(F)c(S(C)(=O)=O)c2)CCN1C(=O)OC(C)(C)C(F)(F)F	0.015 µM
